# Test results as given in patent US20170252410A1.
# Molecular target: insulin receptor, isoform B (UniProt P06213)
# Assay: cell-based or functional assay
substance,measurement,value
"VitD-(3)-PEG1.2K-insulin (ligand; lysine 29 conjugated to one VitD-(3)-PEG1.2K carrier (1.2 kDa PEG scaffold on the 3 position of non-hormonal vitamin D, from VitD-(3)-PEG1.3K-NHS))","EC50 (PathHunter U2OS INSRb Functional Assay, receptor activation by beta-galactosidase complementation)",282 ng/mL
human insulin (unmodified) (ligand),"EC50 (PathHunter U2OS INSRb Functional Assay, receptor activation by beta-galactosidase complementation)",7.9 ng/mL
